# Measured values as given in ChEMBL document CHEMBL1133478, “Discovery of potent cyclic pseudopeptide human tachykinin NK-2 receptor antagonists” (J Med Chem, 2000).
# Test system: Substance-K receptor (Oryctolagus cuniculus)
# Experiment: In Vitro evaluation for the functional activity towards Tachykinin receptor 2
structure (smiles),measurement,value
O=C1CCC(=O)N[C@@H](Cc2c[nH]c3ccccc23)C(=O)N[C@@H](Cc2ccccc2)C(=O)NC(Cc2ccccc2)CN1 (stereo partly specified),pKb,5.8
